This experiment concerns M. smegmatis. Nature of the experiment: microbe, parasite or virus in culture. The conditions noted are these: Mycolicibacterium smegmatis, M. smegmatis grown in NZ-glucose (rich medium); alamar blue assay; read-out: minimal inhibitory concentration. In kind it is cell-based, Mycobacterium smegmatis. On the technique in general: Resazurin is reduced to fluorescent resorufin, in cell work by metabolically active cells.

These results are taken from patent US20110243958A1, “ANTIMICROBIAL AGENTS THAT TARGET BACTERIAL VKOR” (priority 2008, published 2011).

≈ marks a conversion by molar mass, not a printed value.

Consider `CC(=O)CC(c1ccccc1)c1c(O)c2ccccc2oc1=O` (stereo not shown) [warfarin], for which the MIC came out at 2250 µM (≈ 694 µg/mL).
